Results from US7947730B2, “Piperidinium and pyrrolidinium derivatives as ligands for the muscarinic M3 receptor” (dated 2011).

Amino acid sequences for entries named in this document (tags omitted).
UniProt P20309, whole entry, looked up: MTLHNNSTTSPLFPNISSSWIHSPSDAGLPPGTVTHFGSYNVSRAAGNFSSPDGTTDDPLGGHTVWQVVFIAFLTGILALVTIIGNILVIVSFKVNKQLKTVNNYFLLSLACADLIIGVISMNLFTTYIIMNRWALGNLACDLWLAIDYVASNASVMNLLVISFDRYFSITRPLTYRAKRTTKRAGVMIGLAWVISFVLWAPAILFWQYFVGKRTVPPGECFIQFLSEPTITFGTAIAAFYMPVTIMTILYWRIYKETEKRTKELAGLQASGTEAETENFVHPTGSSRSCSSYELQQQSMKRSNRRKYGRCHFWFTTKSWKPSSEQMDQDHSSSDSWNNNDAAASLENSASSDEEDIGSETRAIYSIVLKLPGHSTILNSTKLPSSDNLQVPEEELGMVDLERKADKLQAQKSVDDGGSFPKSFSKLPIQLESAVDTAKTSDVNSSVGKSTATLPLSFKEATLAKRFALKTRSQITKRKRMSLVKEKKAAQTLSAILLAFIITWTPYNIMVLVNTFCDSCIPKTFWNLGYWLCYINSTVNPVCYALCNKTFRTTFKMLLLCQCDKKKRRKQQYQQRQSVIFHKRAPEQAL

target: human muscarinic acetylcholine M3 receptor (Homo sapiens, UniProt P20309); assay: competitive filtration binding assay with [3H] n-methyl scopolamine (NMS); settings: read-out: M3 Ki; membranes from CHO cells transfected with human M3 receptor; [3H]NMS 0.25 nM; 17 hours at room temperature; Cheng-Prusoff correction

Compound	Ki [nM]
C[N@@+]1(CCOc2ccccc2)CCC[C@@H](OC(=O)C(O)(c2ccccc2)c2ccccc2)C1	0.64
C[N+]1(CCOc2ccccc2)CCC(OC(=O)C(O)(c2ccccc2)c2ccccc2)CC1 (centres unmarked)	1.4
C[N@+]1(CCOc2ccccc2)CC[C@H](OC(=O)C(O)(c2cccs2)c2cccs2)CC1	0.44
C[N+]1(CCCOc2ccccc2)CCC[C@H]1COC(=O)C(O)(c1cccs1)c1cccs1 (some centres unmarked)	0.68
CC(=O)OCC[N+]1(C)CCC(COC(=O)C(O)(c2cccs2)c2cccs2)CC1 (centres unmarked)	0.88
C[N@@+]1(CCCc2ccccc2)CCC[C@@H](OC(=O)C(O)(c2cccs2)c2cccs2)C1	0.2
C#CC[N+]1(C)CCC(OC(=O)C(O)(c2ccccc2)c2ccccc2)CC1 (centres unmarked)	0.41
C[N+]1(CC(=O)c2ccccc2)CCC(COC(=O)C(O)(c2ccccc2)c2ccccc2)CC1 (centres unmarked)	3.7
C[N+]1(CCc2ccccc2)CCC[C@@H]1COC(=O)C(O)(c1ccccc1)c1ccccc1 (some centres unmarked)	0.39
C#CC[N+]1(C)CCC(OC(=O)C(O)(c2cccs2)c2cccs2)CC1 (centres unmarked)	0.33
C[N@@+]1(CCCc2ccccc2)CCC[C@@H](OC(=O)C(O)(c2ccccc2)c2ccccc2)C1	0.55
(1R,3R)-3-(2-Hydroxy-2,2-dithiophen-2-yl-acetoxy)-1-methyl-1-(2-phenoxy-ethyl)-piperidinium bromide	0.75
C[N@+]1(CCOc2ccccc2)CC[C@H](OC(=O)C(O)(c2ccccc2)c2ccccc2)CC1	1.3
CCCCCC#CC[N+]1(C)CCC[C@H]1COC(=O)C(O)(c1ccccc1)c1ccccc1 (some centres unmarked)	2.14
